# Yeast mating assay 1: variants of the scFv Ab-14

Antigen: PDVDLGDISGINAS, a 14-residue peptide of the SARS-CoV-2 spike HR2 region.

Parent: Ab-14, a human scFv built as VH, three GGGGS repeats, VL. Only the CDRs of the light chain vary.
VH: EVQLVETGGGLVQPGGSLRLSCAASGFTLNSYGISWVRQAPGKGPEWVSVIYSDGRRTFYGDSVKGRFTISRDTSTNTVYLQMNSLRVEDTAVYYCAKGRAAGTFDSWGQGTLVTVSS
VL: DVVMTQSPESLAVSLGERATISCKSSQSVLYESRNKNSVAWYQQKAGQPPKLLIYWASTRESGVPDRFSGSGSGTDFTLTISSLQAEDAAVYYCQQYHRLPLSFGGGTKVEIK

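The parent was found by panning a naive human phage display library on the peptide. In library AAYL50, one, two or three CDR residues were substituted; doubles and triples were drawn at random. The assay is AlphaSeq: two haploid yeast populations carry antibody and antigen on their surface. Mating (16 h, 30 °C) was followed by selection of diploids and sequencing of their barcodes. Scores were corrected for input abundance and mapped to Kd with protein pairs of known affinity run in the same pool. Mating was done three times.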

Positions count from residue 1 of the parent VL; L30E puts E in place of L. Values are apparent Kd, the geometric mean of the replicates that gave a signal; lower means stronger binding. A pair that was not seen in any replicate is written "nd"; this usually means weak binding, but a binder can also be missed. Entries are sorted by rising average, undetected variants last. Empty control strains, which show no peptide, gave a signal in 18% of pairings with library AAYL50; the median was 15 µM and 95% of these signals were weaker than 970 nM. No background was subtracted. Parent in this assay: reference entry 4.4 nM, copy in this library 48 nM.

changes	apparent Kd	seen in
L30E/W56D/Q96L	410 pM	3/3
S26T/W56A/S103D	600 pM	3/3
S26T/W56Q/S103W	1.7 nM	3/3
K36L/H98C/S103T	2.0 nM	3/3
E32D/R34Q/R99Q	2.4 nM	3/3
S26K/K36M/S58T	6.7 nM	3/3
S26A/S33D/N35C	8.5 nM	3/3
R34D/K36F/Q96H	11 nM	3/3
K24A/R34F	12 nM	3/3
S26N/S62A/Q95N	12 nM	3/3
Q27H/K36T/S38D	17 nM	3/3
Q27A/S28T/S58T	26 nM	3/3
S28D/S38H/E61H	32 nM	3/3
Q27P/V29P/S33I	33 nM	3/3
V29R/S33D/K36A	74 nM	3/3
S28Q/V29N/S38D	77 nM	3/3
E32L/S62P/S103A	89 nM	3/3
S25Y/W56S/E61W	91 nM	3/3
S25V/Y97H	120 nM	3/3
K24N/R34W/S58Q	130 nM	3/3
S33G/N35F/Q96R	140 nM	3/3
Q27N/R34A/L100C	200 nM	1/3
Q27I/V29R/E61Q	420 nM	3/3
K24G/E32Y/R99H	440 nM	3/3
N37P/L102C	510 nM	3/3
S28P/L30N/H98K	540 nM	3/3
T59R/Q96R/P101D	690 nM	3/3
S33W/E61D/P101W	1.2 µM	3/3
Y31H/A40S	1.6 µM	3/3
R34Q/L102Y	1.7 µM	3/3
S38R/Q95C/H98D	2.9 µM	2/3
S26P/S58F/R99Y	3.0 µM	1/3
W56V/Q95S	6.7 µM	2/3
S33I/R34C/A57D	7.3 µM	2/3
V39F/S58W/S62A	7.9 µM	2/3
K24A/N35L/A40Q	14 µM	2/3
S33W/A57I/P101W	18 µM	2/3
R60T/L100W/L102Y	21 µM	2/3
V29M/S33K/R99M	22 µM	1/3
Y31L/R60W/H98R	43 µM	1/3
L30I/A57C/R60N	44 µM	2/3
K24H/A40K	51 µM	3/3
N35I/Y97P/L102A	64 µM	1/3
S25V/R34S/S62N	89 µM	1/3
S26D/S28R/E32N	90 µM	2/3
S26Q/A57F/L102K	100 µM	2/3
R34F/V39I/A40T	130 µM	1/3
S28L/S38C/T59E	150 µM	2/3
L30C/S58C/S103N	470 µM	1/3
Q27L/S28D/A57D	nd	0/3
W56Y/E61I/S103E	nd	0/3
N35W/Y97T/H98K	nd	0/3
N35R/A40C/Y97C	nd	0/3
L30N/E32Y/R34I	nd	0/3
S62H/Q95H/Y97W	nd	0/3
Q27S/S28Q/R99P	nd	0/3
L30Y/S62W/Q95Y	nd	0/3
V29M/S33K/L102W	nd	0/3
V29C/T59A/S62G	nd	0/3
N35F/E61M/R99T	nd	0/3
A40D/E61T/S103R	nd	0/3
A40E/R60W/Y97M	nd	0/3
L30Y/Q96R/R99A	nd	0/3
R60F/S62Q/R99D	nd	0/3
V39K/Q95K	nd	0/3
S25G/S28D/R99I	nd	0/3
S33F/A40V/R99E	nd	0/3
K36C/S38L/L100E	nd	0/3

Excerpt, the final 8 entries:

changes	apparent Kd	seen in
A40D/E61T/S103R	nd	0/3
A40E/R60W/Y97M	nd	0/3
L30Y/Q96R/R99A	nd	0/3
R60F/S62Q/R99D	nd	0/3
V39K/Q95K	nd	0/3
S25G/S28D/R99I	nd	0/3
S33F/A40V/R99E	nd	0/3
K36C/S38L/L100E	nd	0/3

From the AlphaSeq antibody data of Engelhart et al. 2022 (doi:10.1038/s41597-022-01779-4), copy in the FLAb collection.